# US7517882B2, “Protein kinase inhibitors” (Polaris Group, priority 2006, dated 2009)
# Chains of the proteins cited; added tags and fusions are not shown.
# UniProt P68400, whole entry: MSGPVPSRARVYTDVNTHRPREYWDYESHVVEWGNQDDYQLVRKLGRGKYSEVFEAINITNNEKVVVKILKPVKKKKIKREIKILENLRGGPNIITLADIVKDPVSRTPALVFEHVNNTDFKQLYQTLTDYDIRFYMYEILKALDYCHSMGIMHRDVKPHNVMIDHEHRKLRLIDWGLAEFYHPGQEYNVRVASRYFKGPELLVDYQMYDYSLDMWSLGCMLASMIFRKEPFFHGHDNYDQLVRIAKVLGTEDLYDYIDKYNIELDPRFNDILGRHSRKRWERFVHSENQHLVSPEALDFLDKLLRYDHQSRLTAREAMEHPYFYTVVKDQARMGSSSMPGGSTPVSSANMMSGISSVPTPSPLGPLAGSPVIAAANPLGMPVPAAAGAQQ
# Molecular target: T1, human CK2 (Homo sapiens, UniProt P68400)
# T1 construct: Full Length His-tagged Human CK2 was cloned, expressed, and purified; His tag; made in house; host or cells: E. coli
# Assay: CK2 protein kinase inhibition assay (spectrophotometric PK/LDH coupled assay)
# Type: biochemical
# Conditions: Table 1, triazine-based compounds; full length His-tagged human CK2, 50 μM ATP, competitive inhibition fit with Km 10 μM
# Experimental: CK2 protein kinase activity was measured through use of a spectrophotometric PK/LDH coupled assay to detect ATP turnover. Full Length His-tagged Human CK2 was cloned, expressed, and purified from an E. coli expression system. The peptide substrate for CK2 phosphorylation was […] (Genscript Corporation, Piscataway, N.J., USA). […] Prior to the addition of ATP to initiate the phosphorylation reaction, CK2 enzyme was pre-incubated with inhibitors and other assay components for 5 min. Progress of the reaction was continuously monitored by the change in UV/Vis absorbance at 340 nm. […] In the case of very potent binding, tight-binding methods were employed to determine Ki.
compound,measurement,value
"O=C1CCCCc2cnn3c(NC4CC4)nc(nc23)Nc2cccc(c2)N1 [Compound 11a, (11,14)3,5N-{cyclopropyl-pyrazolo[1,5-a][1,3,5]triazin-4-ylamino}-(2N,4N)-phenyl-1,5-diaza-cyclotetradeca-8-one]",pKi,> 7.00

# pKi: −log10 of the molar value.
